The values below come from CN116284408A (SUNSHINE GUOJIAN PHARMACEUTICAL SHANGHAI CO LTD, dated 2023).

The labels stand for the following.
B1: ch-8H2 (antibody, V domains shown)
VH: EVNLVESGGGLVKPGGSLKLSCAASGFAFSNYDMSWVRQTPEKRLEWVATISGGGSYTYYPDNVKGRFTISRDNAMNTLYLQMSSLRSEDTALYYCASVNWGFPYWGQGTLVTVSA
VL: DIVMSQSPSSLAVSIGEKVTMSCKSSQSLLYSRNQKNYLAWYQQKPGQSPILLIYWTSTRESGVPDRFTGSGSGTDFTLTISGVKAEDLAVYYCQQYYTSPWTFGGGTRLEIKR
B2: ch-42H4 (antibody, V domains shown)
VH: QVQLQQSGAELVKPGASAKLSCKASGYTFNSNYIYWVKQRPGQGLEWIGEIKPTNGVTNFNEKFKTKATLTVDKSSSTAYMQLTSLTSEDSAVYYCTRGFSLLRLQGYAMDDWGQGTSVTVSS
VL: not shown
B3: ch-51E12 (antibody, V domains shown)
VH: QVQLQQSGPELVKPGASVKISCKVSGNAFSLSWMNWVKQRPGQGLEWIGRIYPGDGDSNYNGKFKGKATLTADKSSSTVFMQLSSLTSVDSAVYFCANYYGSSSWFVYWGQGTLVTVSA
VL: DVVMTQTPLSLPVSLGDQASISCRSSQSLVHSYGNTYLHWYLQKPGQSPKLLIYKVSNRFSGVPDRFSGSGSGTDFTLKISRVETEDLGVYFCSQSTHFPWTFGGGTKLEIKR
B4: ch-15D10 (antibody, V domains shown)
VH: QVQLQQPGAELVKPGASVKMSCKASGYTFTTYWMHWVKQRSGQGLEWIGVIDPSDSYTRYNQKFKDKATLTVDTSSSTAYMHLTSLTSEDSAVYYCTRSGIGNSFIMDYWGQGTSVTVSS
VL: QVVLTQSPAIMPAFPGEKVTISCSASSSVIYMFWYQQKPGSSPKPWIYRTSNLASGVPARFTGSGSGTSYSLTISSMEAEDAATYYCQQYHSYPLTFGVGTKLELKR
B5: ch-45D1 (antibody, V domains shown)
VH: EMQLVESGGDLVKPGGSLKLSCAVSGFTFSTYDMSWIRQTPDKRLEWVATISSGGSYTYYPDSVKGRFTISRDNAKNTLYLQMSSLQSEDTAIYYCASLNWGFDHWGQGTTLTVSS
VL: not shown

In the first experiment the target is MUC17 on LS174T colorectal cancer cells (human, UniProt Q685J3 26-4493). The experiment in a line: flow cytometry on LS174T cells, chimeric antibody titrated. For orientation: In flow cytometry, cells or beads pass a laser one at a time.
Molecule B1 displayed an EC50 of 1.76 nM.
Still for that read-out and setting: the value for B2 was 10.3 nM.

A further experiment concerns the target T1, 人MUC17-Fc蛋白 (human, UniProt Q685J3 4131-4390).
T1 construct: range 4131-4390; No linker is described; also called MUC17抗原; not shown: C-terminal Fc tag
The experiment in a line: ELISA, coated MUC17 antigen, chimeric antibody titrated. Background: In an ELISA, binding on a coated surface is turned into a signal by an enzyme label.
With B3, the concentration for a half-maximal effect (EC50) came to 0.218 nM and the Top turned out to be 2.31 OD450.
The like results for B1 were, in that order, 0.116 nM and 2.53 OD450.
In turn, B4 returned an EC50 of 0.117 nM and a Top of 2.46 OD450.
For B2, in that order: 2650 nM and 7.58 OD450.
For B5, in that order: 0.123 nM and 2.52 OD450.

As usually defined, the EC50 is the concentration that produces a half-maximal response. A high value points to a need for much substance.
